From PMC8957950, “Dose Optimization of Teicoplanin for Critically Ill Patients With Renal Dysfunction and Continuous Renal Replacement Therapy: Experience From a Prospective Interventional Study” (Frontiers in Pharmacology, 2022)

Tests used:
[1] = not given; remark: listed apart in the source
[2] = in vivo; cited from earlier work
[3] = remark: listed apart in the source
Description: Patients’ data were obtained from the inpatients’ medical database.

[4] = CRRT patients (CVVH), n = 26, ultrafiltrate, mean (SD), HPLC, SD
[5] = before the 6th–8th dose, CRRT group

Teicoplanin
Filtration coefficient of TEI (CRRT (CVVH), stable even at a higher ultrafiltration rate, summary statement): about 10%
Trough serum concentration at the 6th–8th dose (CRRT patients (CVVH), n = 26, 24 h after start of infusion, mean (SD), HPLC, SD): 23.8 ± 7.1 mg/L
Filtration coefficient at Cmin (CRRT patients (CVVH), n = 26, Sc = Cuf/Cs, mean (SD), SD): 10.7 ± 2.4%
Filtration coefficient at peak concentration (CRRT patients (CVVH), n = 26, Sc = Cuf/Cs, ultrafiltration rate 44.7 ± 10.1 ml/kg/h, mean (SD), SD): 11.1 ± 2.5 ^a %
Peak filtrate concentration at the 6th–8th dose [4]: 3.9 ± 1.1 mg/L
Trough filtrate concentration at the 6th–8th dose [4]: 2.5 ± 0.8 mg/L
AUC (CRRT patients, CVVH mode, n = 26, AUC24h = daily dose/CL, mean (SD), SD): 1541.8 ± 507.4 µg·h/mL
Rate of TEI Cmin in the range of 10–30 mg/L ([1]; before the 3rd dose, CRRT group): 70.0%
Rate of TEI Cmin in the range of 10–30 mg/L ([1]; before the 3rd dose, IRF (non-CRRT) group): 75.8%
Rate of Cmin in the range of 15–30 mg/L [1, 5]: 70%
Rate of TEI Cmin in the range of 10–30 mg/L [1, 5]: 90.0%
Rate of TEI Cmin in the range of 10–30 mg/L ([1]; before the 6th–8th dose, IRF (non-CRRT) group): 89.1%
Rate of Cmin in the range of 15–30 mg/L ([1]; before the 6th–8th dose, non-CRRT group): 71.7%
CL of TEI in the CVVHDF mode [2]: 5.8 ± 4.2 mL/h/kg
Elimination by hemodialysis [2]: cannot be eliminated by hemodialysis
Patients with renal dysfunction achieving the target Cmin of 15 μg/ml [2]: 20.3%
Serum elimination half-life [2]: about 50 h
Rate of adverse events ([3]; CRRT group): 5.0%
Cases of liver injury ([3]; CRRT group (n = 40)): Two
Rate of adverse events ([3]; non-CRRT group): 7.6%
Cases of liver injury after TEI treatment ([3]; non-CRRT group (n = 66)): one

Like-named read-outs stand apart in the source and are kept apart here. Marks after values point to notes of the source that are not given here.
